Biological target: DNA polymerase II (Pol II) of E. coli (E. coli, UniProt P21189)
Experiment: SPR

Kd: 31.6 nM
koff: 0.00119 s⁻¹
kon: 37700 M⁻¹ s⁻¹
B1: wild type E. coli β sliding clamp, N-terminally His6 and cAMP-dependent kinase motif tagged (natural protein)
chain: MKFTVEREHLLKPLQQVSGPLGGRPTLPILGNLLLQVADGTLSLTGTDLEMEMVARVALVQPHEPGATTVPARKFFDICRGLPEGAEIAVQLEGERMLVRSGRSRFSLSTLPAADFPNLDDWQSEVEFTLPQATMKRLIEATQFSMAHQDVRYYLNGMLFETEGEELRTVATDGHRLAVCSMPIGQSLPSHSVIVPRKGVIELMRMLDGGDNPLRVQIGSNNIRAHVGDFIFTSKLVDGRFPDYRRVLPKNPDKHLEAGCDLLKQAFARAAILSNEKFRGVRLYVSENQLKITANNPEQEEAEEILDVTYSGAEMEIGFNVSYVLDVLNALKCENVRMMLTDSVSSVQIEDAASQSAAYVVMPMRL

Source: paper PMC2670953 (Journal of molecular biology, 2009)
